Experiment [1] has as its target T1, C-X-C chemokine receptor type 3 (Homo sapiens, UniProt P49682).
T1 sequence (P49682 whole entry): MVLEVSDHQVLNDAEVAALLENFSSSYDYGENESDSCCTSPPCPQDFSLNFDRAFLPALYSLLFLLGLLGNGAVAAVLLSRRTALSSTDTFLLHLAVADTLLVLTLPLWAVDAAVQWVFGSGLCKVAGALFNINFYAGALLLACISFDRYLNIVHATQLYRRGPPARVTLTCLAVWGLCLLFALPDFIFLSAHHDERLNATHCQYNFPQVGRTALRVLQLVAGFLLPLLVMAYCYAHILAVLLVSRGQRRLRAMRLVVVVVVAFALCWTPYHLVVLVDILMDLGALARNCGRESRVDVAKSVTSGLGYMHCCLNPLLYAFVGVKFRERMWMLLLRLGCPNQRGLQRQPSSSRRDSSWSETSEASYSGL
Description: Displacement of [125I]-CXCL11 from human CXCR3 expressed in HEK293 cells. Format: cell-based. The procedure, abridged:
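Membranes of HEK293 cells stably expressing hCXCR3, radioligand ¹²⁵I-CXCL11; displacement by test compound measured to derive pKi; n = 2–4, each in duplicate.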
For orientation: Loss of bound radioactivity is the signal in a displacement assay; it reports binding, not function.

Experiment [2] deals with T1, C-X-C chemokine receptor type 3. Description: Displacement of [125I]-CXCL10 from human CXCR3 expressed in HEK293 cells. The class given is cell-based. The procedure, abridged:
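Membranes from HEK293 cells stably expressing hCXCR3; competition against ¹²⁵I-CXCL10 binding; non-specific binding defined with 10 µM CXCR3 antagonist reference; full concentration-displacement curves give pKi; n = 2–4, each in duplicate.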

pKi: −log10 of the molar value.

For orientation: pKi means the negative decadic logarithm of the Ki, by convention in mol/L. As for `CCOc1ccc(-n2c([C@@H](C)N(Cc3cccnc3)C(=O)Cc3ccc(OC(F)(F)F)cc3)nc3ncccc3c2=O)cc1`, the pKi in experiment [1] was 6.80; in experiment [2], 7.40.

(Values after ChEMBL document CHEMBL2203150, “CXCR3 antagonists: quaternary ammonium salts equipped with biphenyl- and polycycloaliphatic-anchors” (Bioorg Med Chem, 2011).)
